Measurements from patent US20130183237A1 (priority 2007, published 2013).

Protein sequences, listed by entry. Tags and fused reporters are not part of them. Residues count along the entry.
UniProt P00760, 24-246 limits assumed: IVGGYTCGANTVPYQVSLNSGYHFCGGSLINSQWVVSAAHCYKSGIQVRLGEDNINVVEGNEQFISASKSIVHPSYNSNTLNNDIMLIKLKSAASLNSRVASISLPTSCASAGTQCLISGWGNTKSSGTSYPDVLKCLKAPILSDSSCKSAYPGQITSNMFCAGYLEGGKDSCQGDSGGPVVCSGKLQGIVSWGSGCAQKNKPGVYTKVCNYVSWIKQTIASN

Target: trypsin (Bos taurus, UniProt P00760)
Experiment: Serine protease specificity: trypsin / S2222
Details: 100 μM of s-variegin

## CC[C@H](C)[C@H](NC(=O)[C@H](C)NC(=O)[C@H](CCC(=O)O)NC(=O)[C@H](Cc1ccccc1)NC(=O)[C@H](CC(=O)O)NC(=O)[C@H](Cc1ccccc1)NC(=O)[C@@H]1CCCN1C(=O)[C@@H]1CCCN1C(=O)[C@H](C)NC(=O)[C@@H](NC(=O)[C@H](CCCCN)NC(=O)[C@H](Cc1c[nH]cn1)NC(=O)[C@H](CCSC)NC(=O)[C@H](CCCCN)NC(=O)[C@@H]1CCCN1C(=O)[C@H](CCC(=O)O)NC(=O)[C@H](C)NC(=O)[C@@H](NC(=O)[C@H](CC(=O)O)NC(=O)CNC(=O)[C@H](CCC(N)=O)NC(=O)[C@H](CC(=O)O)NC(=O)[C@@H](N)CO)C(C)C)[C@@H](C)O)C(=O)N1CCC[C@H]1C(=O)N[C@@H](CCC(=O)O)C(=O)N[C@@H](CCC(=O)O)C(=O)N[C@@H](Cc1ccc(O)cc1)C(=O)N[C@@H](CC(C)C)C(=O)N[C@@H](CC(=O)O)C(=O)N[C@@H](CC(=O)O)C(=O)N[C@@H](CCC(=O)O)C(=O)N[C@@H](CO)C(=O)O
  inhibition of trypsin: 20 to 30%
